Earlier results, collected in US20260034075A1, “CHOLINE CARBOXYLIC ACID BASED IONIC LIQUIDS AS ANTIMICROBIAL AGENTS” (University of Mississippi, priority 2022, published 2026).

Test system: E. coli
Settings: individual reagents of the IL, compared with CADDA 1:1; cited from earlier work

In the case of `CCCCCCCCCCCC(=O)O` [lauric acid], the “bactericidal activity (concentration) of individual reagent” value is given as “around 1562.5 mM”.
